Test [1] deals with BCL6^BTB-AviTag, biotinylated (BTB domain of BCL6, amino acids 5-129, C8Q, C67R, C84N) (UniProt P41182). In words: BLI, ternary complex: biotinylated BCL6^BTB on the tip, 50 µM BRD4^BD1 in the well with titration of the small molecule TCIP1. On the technique in general: BLI is a label-free optical method that tracks binding on a fibre tip over time.
Test [2] shares this target. In words: BLI, ternary complex with TCIP1: biotinylated BCL6^BTB on the tip, excess BRD4^BD1 in the well.
The target of test [3] is BRD4^BD1 (bromodomain 1 of BRD4), tag-cleaved version (UniProt O60885). In words: ITC, ternary complex: BCL6^BTB titrated into BRD4^BD1 pre-incubated 20:1 with the small molecule TCIP1.
A further test deals with BRD4:TCIP1. In words: BLI; ternary complex with TCIP1.

In general, Kd refers to a measure of binding affinity in units of concentration. In general, half-life refers to the time in which the quantity being followed falls by half.

“BRD4^BD1 (bromodomain 1 of BRD4), tag-cleaved version (from UniProt O60885 44-168)” came in with an equilibrium dissociation constant (Kd) in test [1] of 316 nM. The same substance displayed a half-life in test [2] of 30 s.

In test [3], “BCL6^BTB (BTB domain of BCL6, amino acids 5-129, C8Q, C67R, C84N), tag-cleaved version (from UniProt P41182 5-129)” yielded a Kd of 340 nM.

Regarding BCL6, in the test with BRD4:TCIP1, the Kd amounted to 316 nM.
